# Laboratory results as given in patent publication US9238656B2, “Imidazo[4,5-b]pyridine derivatives as ALK and JAK modulators for the treatment of proliferative disorders” (priority 2012, dated 2016).
# Amino acid sequences for entries named in this document (tags omitted). Residues count along the entry.
# UniProt O60674, whole entry: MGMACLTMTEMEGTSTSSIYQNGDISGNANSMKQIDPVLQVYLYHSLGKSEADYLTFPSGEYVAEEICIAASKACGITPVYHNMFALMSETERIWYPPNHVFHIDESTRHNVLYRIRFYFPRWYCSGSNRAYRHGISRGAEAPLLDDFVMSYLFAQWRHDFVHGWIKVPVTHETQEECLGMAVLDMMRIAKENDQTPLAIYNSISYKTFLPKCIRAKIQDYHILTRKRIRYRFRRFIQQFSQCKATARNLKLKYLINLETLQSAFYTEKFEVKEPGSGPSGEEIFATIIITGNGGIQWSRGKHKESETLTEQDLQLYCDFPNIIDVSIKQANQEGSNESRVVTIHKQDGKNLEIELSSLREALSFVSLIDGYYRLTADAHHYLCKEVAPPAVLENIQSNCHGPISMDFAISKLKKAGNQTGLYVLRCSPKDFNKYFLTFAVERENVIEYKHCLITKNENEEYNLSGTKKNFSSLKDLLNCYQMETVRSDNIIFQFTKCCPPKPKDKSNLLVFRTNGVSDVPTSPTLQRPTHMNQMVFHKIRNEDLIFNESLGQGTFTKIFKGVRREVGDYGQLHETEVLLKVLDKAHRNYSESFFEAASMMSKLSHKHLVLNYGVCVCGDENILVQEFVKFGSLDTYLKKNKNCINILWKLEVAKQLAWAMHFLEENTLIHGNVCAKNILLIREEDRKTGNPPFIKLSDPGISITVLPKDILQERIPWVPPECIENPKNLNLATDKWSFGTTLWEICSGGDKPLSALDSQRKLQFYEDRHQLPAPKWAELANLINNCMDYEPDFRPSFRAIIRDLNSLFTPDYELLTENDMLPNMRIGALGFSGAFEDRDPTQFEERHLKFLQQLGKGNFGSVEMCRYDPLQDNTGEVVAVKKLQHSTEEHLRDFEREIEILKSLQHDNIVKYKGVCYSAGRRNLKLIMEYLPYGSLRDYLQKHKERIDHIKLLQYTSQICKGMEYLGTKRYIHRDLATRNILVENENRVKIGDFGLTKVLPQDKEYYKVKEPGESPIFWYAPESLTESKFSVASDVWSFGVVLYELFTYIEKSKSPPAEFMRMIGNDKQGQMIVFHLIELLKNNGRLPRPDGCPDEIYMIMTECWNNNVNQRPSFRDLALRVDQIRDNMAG
# UniProt Q9UM73, 19-1620 limits assumed: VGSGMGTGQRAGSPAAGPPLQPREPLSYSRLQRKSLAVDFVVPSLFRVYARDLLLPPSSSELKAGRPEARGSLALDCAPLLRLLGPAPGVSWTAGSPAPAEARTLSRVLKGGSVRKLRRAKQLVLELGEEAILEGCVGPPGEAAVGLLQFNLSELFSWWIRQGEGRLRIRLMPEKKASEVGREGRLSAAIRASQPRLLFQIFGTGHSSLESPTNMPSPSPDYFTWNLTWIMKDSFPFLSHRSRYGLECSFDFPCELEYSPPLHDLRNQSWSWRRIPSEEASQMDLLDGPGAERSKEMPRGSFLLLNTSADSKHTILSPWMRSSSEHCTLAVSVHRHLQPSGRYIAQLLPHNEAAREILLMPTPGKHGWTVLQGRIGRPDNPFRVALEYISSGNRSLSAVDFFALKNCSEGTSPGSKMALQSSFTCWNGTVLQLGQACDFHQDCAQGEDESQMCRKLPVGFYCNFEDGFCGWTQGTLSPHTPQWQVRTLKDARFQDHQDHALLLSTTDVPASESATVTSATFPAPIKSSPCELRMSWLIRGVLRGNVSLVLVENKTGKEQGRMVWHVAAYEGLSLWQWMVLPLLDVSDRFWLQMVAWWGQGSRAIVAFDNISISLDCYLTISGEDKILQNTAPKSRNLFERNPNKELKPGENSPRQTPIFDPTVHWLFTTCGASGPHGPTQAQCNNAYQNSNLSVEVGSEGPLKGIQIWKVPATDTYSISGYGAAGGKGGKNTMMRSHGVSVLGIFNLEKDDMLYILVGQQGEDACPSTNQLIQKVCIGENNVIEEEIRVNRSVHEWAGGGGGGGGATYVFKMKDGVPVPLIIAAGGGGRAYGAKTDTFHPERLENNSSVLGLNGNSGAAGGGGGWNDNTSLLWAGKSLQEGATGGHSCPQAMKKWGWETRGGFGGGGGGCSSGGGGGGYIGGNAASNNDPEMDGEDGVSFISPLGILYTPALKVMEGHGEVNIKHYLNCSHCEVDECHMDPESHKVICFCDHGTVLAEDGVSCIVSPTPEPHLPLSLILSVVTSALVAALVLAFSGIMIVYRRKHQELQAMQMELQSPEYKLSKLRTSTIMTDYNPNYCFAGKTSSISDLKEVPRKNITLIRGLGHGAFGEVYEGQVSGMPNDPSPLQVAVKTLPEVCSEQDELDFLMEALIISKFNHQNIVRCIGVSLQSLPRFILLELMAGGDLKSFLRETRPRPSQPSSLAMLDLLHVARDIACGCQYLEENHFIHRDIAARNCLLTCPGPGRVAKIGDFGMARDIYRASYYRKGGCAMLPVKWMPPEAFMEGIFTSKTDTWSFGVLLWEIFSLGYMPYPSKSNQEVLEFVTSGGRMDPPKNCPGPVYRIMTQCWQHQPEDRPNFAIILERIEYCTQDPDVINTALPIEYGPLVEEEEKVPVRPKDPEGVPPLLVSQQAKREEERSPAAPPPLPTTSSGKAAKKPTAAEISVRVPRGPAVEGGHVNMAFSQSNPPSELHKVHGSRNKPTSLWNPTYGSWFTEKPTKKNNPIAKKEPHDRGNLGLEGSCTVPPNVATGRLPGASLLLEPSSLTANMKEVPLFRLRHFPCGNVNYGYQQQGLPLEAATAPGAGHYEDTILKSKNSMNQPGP
# Key:
# [1] = biological target: baculovirus-expressed JAK2 kinase (Homo sapiens, UniProt O60674); settings: read-out: JAK2 Potency
# [2] = biological target: baculovirus-expressed ALK (Homo sapiens, UniProt Q9UM73); assay: ALK kinase inhibition, TRF/ELISA; assay type: biochemical; settings: read-out: ALK Potency; 1 μM ATP (Km level)
compound,measurement,setting,value
COc1ncccc1-c1nc2c(N[C@H]3[C@@H](C(N)=O)[C@@H]4C=C[C@H]3C4)c(Cl)cnc2[nH]1,IC50,[1],100 to 1000 nM
same,IC50,[2],< 100 nM
